Tested on: male rats (F344)
Assay: Effect on performance in a radial-arm maze task (AF64AP-treated rats)
Assay type: in vivo
Conditions: 0.05 nmol injected into both lateral cerebral ventricles

Structure (SMILES): CC[N+]1(CCO)CC1
- memory impairment compared to the control group: significant memory impairment
